CycPeptMPDB entries from one study

Source: CycPeptMPDB (Li et al. 2023), which took these values from Kelly et al. 2021, doi:10.1021/jacs.0c06115.

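Conditions beyond the assay type are not listed; see the original paper. The list need not hold all peptides of the study. Entries at the database's floor value (log10 P of -10) are not listed.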

PAMPA is the parallel artificial membrane permeability assay, which has no cells and reads passive diffusion.
MDCK values are permeabilities across Madin-Darby canine kidney cell monolayers.
Permeability is given as log10 of P in cm/s; higher (less negative) is more permeable.

The entry for CC(=O)N1CCC[C@@H]1C(=O)N(C)[C@@H](CC(C)C)C(=O)N[C@@H]1C(=O)N(C)[C@H](CC(C)C)C(=O)N(C)[C@@H](CC(C)C)C(=O)N[C@@H](CC(C)C)C(=O)N(C)[C@@H](C)C(=O)N[C@H](CC(C)C)C(=O)N2CCC[C@@H]2C(=O)O[C@@H]1C lists PAMPA -5.09 (log10 cm/s). CC(=O)N1CCC[C@H]1C(=O)N(C)[C@@H](CC(C)C)C(=O)N[C@@H]1C(=O)N(C)[C@H](CC(C)C)C(=O)N(C)[C@H](CC(C)C)C(=O)N[C@@H](CC(C)C)C(=O)N(C)[C@H](C)C(=O)N[C@@H](CC(C)C)C(=O)N2CCC[C@@H]2C(=O)O[C@@H]1C has PAMPA -5.57 (log10 cm/s). For CC(=O)N1CCC[C@H]1C(=O)N(C)[C@@H](CC(C)C)C(=O)N[C@@H]1C(=O)N[C@@H](CC(C)C)C(=O)N[C@@H](CC(C)C)C(=O)N[C@H](CC(C)C)C(=O)N[C@@H](C)C(=O)N[C@H](CC(C)C)C(=O)N2CCC[C@H]2C(=O)O[C@@H]1C the data give PAMPA -7.44 (log10 cm/s). CC(=O)N1CCC[C@H]1C(=O)N(C)[C@H](CC(C)C)C(=O)N[C@@H]1C(=O)N[C@H](CC(C)C)C(=O)N[C@@H](CC(C)C)C(=O)N[C@@H](CC(C)C)C(=O)N[C@@H](C)C(=O)N[C@H](CC(C)C)C(=O)N2CCC[C@@H]2C(=O)O[C@@H]1C has PAMPA -6.67 (log10 cm/s). For CC(=O)N1CCC[C@H]1C(=O)N(C)[C@@H](CC(C)C)C(=O)N[C@@H]1C(=O)N[C@@H](CC(C)C)C(=O)N(C)[C@@H](CC(C)C)C(=O)N[C@@H](CC(C)C)C(=O)N(C)[C@@H](C)C(=O)N[C@@H](CC(C)C)C(=O)N2CCC[C@@H]2C(=O)O[C@@H]1C the data give PAMPA -6.03 (log10 cm/s). The entry for CC(=O)N1CCC[C@@H]1C(=O)N(C)[C@@H](CC(C)C)C(=O)N[C@@H]1C(=O)N[C@@H](CC(C)C)C(=O)N[C@H](CC(C)C)C(=O)N(C)[C@@H](CC(C)C)C(=O)N(C)[C@@H](C)C(=O)N[C@H](CC(C)C)C(=O)N2CCC[C@H]2C(=O)O[C@@H]1C lists PAMPA -6.24 (log10 cm/s). For CC(=O)N1CCC[C@H]1C(=O)N(C)[C@@H](CC(C)C)C(=O)N[C@@H]1C(=O)N[C@H](CC(C)C)C(=O)N(C)[C@H](CC(C)C)C(=O)N[C@H](CC(C)C)C(=O)N(C)[C@H](C)C(=O)N[C@H](CC(C)C)C(=O)N2CCC[C@@H]2C(=O)O[C@@H]1C the data give PAMPA -6.93 (log10 cm/s).

CC(=O)N1CCC[C@H]1C(=O)N[C@@H]1C(=O)N[C@H](CC(C)C)C(=O)N[C@H](CC(C)C)C(=O)N(C)[C@@H](CC(C)C)C(=O)N(C)[C@H](CC(C)C)C(=O)N(C)[C@H](C)C(=O)N[C@@H](CC(C)C)C(=O)N2CCC[C@@H]2C(=O)O[C@@H]1C has PAMPA -5.61 (log10 cm/s). CC(=O)N1CCC[C@@H]1C(=O)N(C)[C@H](CC(C)C)C(=O)N[C@@H]1C(=O)N[C@H](CC(C)C)C(=O)N(C)[C@H](CC(C)C)C(=O)N(C)[C@@H](CC(C)C)C(=O)N(C)[C@@H](C)C(=O)N[C@H](CC(C)C)C(=O)N2CCC[C@H]2C(=O)O[C@@H]1C is reported with PAMPA -5.33 (log10 cm/s). CC(=O)N1CCC[C@@H]1C(=O)N(C)[C@@H](CC(C)C)C(=O)N[C@@H]1C(=O)N[C@H](CC(C)C)C(=O)N(C)[C@H](CC(C)C)C(=O)N[C@H](CC(C)C)C(=O)N[C@@H](C)C(=O)N[C@@H](CC(C)C)C(=O)N2CCC[C@H]2C(=O)O[C@@H]1C is reported with PAMPA -5.84 (log10 cm/s). Listed for CC(=O)N1CCC[C@H]1C(=O)N(C)[C@@H](CC(C)C)C(=O)N[C@@H]1C(=O)N(C)[C@@H](CC(C)C)C(=O)N[C@@H](CC(C)C)C(=O)N(C)[C@@H](CC(C)C)C(=O)N[C@@H](C)C(=O)N[C@H](CC(C)C)C(=O)N2CCC[C@@H]2C(=O)O[C@@H]1C: PAMPA -6.97 (log10 cm/s) and MDCK -6.30 (log10 cm/s). CC(=O)N1CCC[C@@H]1C(=O)N(C)[C@@H](CC(C)C)C(=O)N[C@@H]1C(=O)N[C@@H](CC(C)C)C(=O)N[C@@H](CC(C)C)C(=O)N[C@H](CC(C)C)C(=O)N(C)[C@H](C)C(=O)N[C@H](CC(C)C)C(=O)N2CCC[C@@H]2C(=O)O[C@@H]1C is reported with PAMPA -6.42 (log10 cm/s). For CC(=O)N1CCC[C@@H]1C(=O)N(C)[C@H](CC(C)C)C(=O)N[C@@H]1C(=O)N(C)[C@H](CC(C)C)C(=O)N[C@@H](CC(C)C)C(=O)N(C)[C@H](CC(C)C)C(=O)N(C)[C@H](C)C(=O)N[C@@H](CC(C)C)C(=O)N2CCC[C@H]2C(=O)O[C@@H]1C the data give PAMPA -5.55 (log10 cm/s).

Extract of 2 entries:

For CC(=O)N1CCC[C@@H]1C(=O)N(C)[C@@H](CC(C)C)C(=O)N[C@@H]1C(=O)N(C)[C@H](CC(C)C)C(=O)N(C)[C@@H](CC(C)C)C(=O)N[C@@H](CC(C)C)C(=O)N(C)[C@@H](C)C(=O)N[C@H](CC(C)C)C(=O)N2CCC[C@@H]2C(=O)O[C@@H]1C the data give PAMPA -5.09 (log10 cm/s).
For CC(=O)N1CCC[C@H]1C(=O)N(C)[C@@H](CC(C)C)C(=O)N[C@@H]1C(=O)N[C@H](CC(C)C)C(=O)N(C)[C@H](CC(C)C)C(=O)N[C@H](CC(C)C)C(=O)N(C)[C@H](C)C(=O)N[C@H](CC(C)C)C(=O)N2CCC[C@@H]2C(=O)O[C@@H]1C the data give PAMPA -6.93 (log10 cm/s).